Broadly, the IC50 is the point on the concentration scale where inhibition reaches its midpoint. The low end stands for greater potency, the high end for weaker potency.

The chains behind the UniProt entries cited, without tags or fusion partners. Where a name states a change or a piece, a line headed by the entry shows the natural chain unless it says otherwise.
UniProt G1T8E2: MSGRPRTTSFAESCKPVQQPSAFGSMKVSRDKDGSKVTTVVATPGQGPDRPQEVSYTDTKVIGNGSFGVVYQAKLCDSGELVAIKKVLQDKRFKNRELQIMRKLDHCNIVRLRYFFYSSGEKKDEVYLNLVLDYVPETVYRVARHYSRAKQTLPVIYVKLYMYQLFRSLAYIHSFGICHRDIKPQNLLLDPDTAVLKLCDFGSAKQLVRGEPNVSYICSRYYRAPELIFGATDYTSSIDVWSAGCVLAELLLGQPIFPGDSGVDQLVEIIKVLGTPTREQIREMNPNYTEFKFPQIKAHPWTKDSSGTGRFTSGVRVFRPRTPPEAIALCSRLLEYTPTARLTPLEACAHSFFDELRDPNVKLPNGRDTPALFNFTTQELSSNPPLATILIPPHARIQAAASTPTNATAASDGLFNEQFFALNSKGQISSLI

SMILES strings stand for the structures.

The target of this assay is Glycogen synthase kinase-3 beta [7-25] (Oryctolagus cuniculus, UniProt G1T8E2).
For the compound `COc1ccc(C(=O)CBr)cc1`, half-maximal inhibition (IC50) required 1000 nM.
Consider `O=C(CBr)c1ccc(Cl)cc1`, for which the midpoint of inhibition, the IC50, lay at 1000 nM.
Turning to `O=C(CBr)c1ccc([N+](=O)[O-])cc1`, it took 2000 nM to reach half-maximal inhibition (IC50).

For the origin of these results see BindingDB's records for 14561081 (Instituto De Quimica Medica (Csic), 2003).
